Antibody variant affinities, Ab-91 heavy chain, assay 2

The measurements come from Engelhart et al. 2022 (doi:10.1038/s41597-022-01779-4) through the FLAb antibody collection.

Target peptide (SARS-CoV-2 spike, HR2 region): PDVDLGDISGINAS

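The starting antibody came from a phage panning campaign against this peptide. Library AAYL51 holds single substitutions and randomly drawn double and triple substitutions in the CDRs. The assay is AlphaSeq: two haploid yeast populations carry antibody and antigen on their surface. Mating (16 h, 30 °C) was followed by selection of diploids and sequencing of their barcodes. Each replicate has its own calibration line, from reference interactions of the BCL2 family. Each pool was mated in three replicate cultures.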

Parent scFv Ab-91: VL joined to VH by three GGGGS repeats. Changes lie in the heavy chain CDRs alone.
VL: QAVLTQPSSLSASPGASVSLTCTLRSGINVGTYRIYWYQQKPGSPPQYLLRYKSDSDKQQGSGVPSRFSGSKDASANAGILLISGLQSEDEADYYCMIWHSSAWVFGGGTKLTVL
VH: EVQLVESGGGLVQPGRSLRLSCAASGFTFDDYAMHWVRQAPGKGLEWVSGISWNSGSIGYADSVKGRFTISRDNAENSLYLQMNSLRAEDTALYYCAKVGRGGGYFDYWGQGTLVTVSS

Substitutions are numbered in sequence along the VH above, starting at 1 (not Kabat). All variants listed here change Y60 of the VH, counted from its first residue. Kd is apparent (estimated from mating counts) and averaged on the log scale over replicates with a signal. Smaller is tighter. An entry "nd" has no value in the source: the pair was not observed among the diploids in any replicate. This suggests poor binding but is not conclusive.

N54V+Y60W+V64W: nd (0 of 3 replicates; controls 2 of 9).
Y60E+S63T+R101H: 1.4 mM (2 of 3 replicates; controls 4 of 9).
S52F+G56W+Y60H: 97 µM (3 of 3 replicates; controls 4 of 9).
Y60V+V99F+G102V: 14 nM (3 of 3 replicates; controls 9 of 9).
A33I+I51Y+Y60H: 8.1 µM (1 of 3 replicates; controls 0 of 9).
N54M+Y60A+G103R: nd (0 of 3 replicates; controls 0 of 9).
S57Q+Y60K+G102F: 130 µM (3 of 3 replicates; controls 9 of 9).
S55V+Y60T+V99P: 640 µM (1 of 3 replicates; controls 1 of 9).
Y32E+I51F+Y60I: nd (0 of 3 replicates; controls 0 of 9).
Y32W+S52W+Y60L: nd (0 of 3 replicates; controls 0 of 9).
Y60Q+Y105P: nd (0 of 3 replicates; controls 0 of 9).
D31I+Y60W+V64N: nd (0 of 3 replicates; controls 0 of 9).
F27H+G56D+Y60N: 150 µM (3 of 3 replicates; controls 6 of 9).
Y60D: 1.4 µM (2 of 3 replicates; controls 0 of 9).
Y60G+R101C+D107G: nd (0 of 3 replicates; controls 2 of 9).
F29G+D31V+Y60I: 270 µM (1 of 3 replicates; controls 2 of 9).
Y60V: 50 nM (3 of 3 replicates; controls 2 of 9).
Y60H+D62Q+V64F: nd (0 of 3 replicates; controls 1 of 9).
A33P+Y60F+Y105R: 210 nM (3 of 3 replicates; controls 2 of 9).
S57V+Y60F: 140 µM (2 of 3 replicates; controls 2 of 9).
Y60P+A61N+G103K: nd (0 of 3 replicates; controls 1 of 9).
H35G+Y60G+D62W: nd (0 of 3 replicates; controls 0 of 9).
Y60T+G104V+D107L: nd (0 of 3 replicates; controls 2 of 9).
G59E+Y60P+G100E: nd (0 of 3 replicates; controls 3 of 9).
F27T+Y60E+D62L: 14 µM (1 of 3 replicates; controls 1 of 9).
G26R+Y60G+V64D: 240 µM (2 of 3 replicates; controls 7 of 9).
Y60W: 22 µM (3 of 3 replicates; controls 4 of 9).
Y60K+V64K+V99P: nd (0 of 3 replicates; controls 1 of 9).
T28H+Y60W+D62M: 3.2 µM (1 of 3 replicates; controls 1 of 9).
Y60T+D62A+G102H: 2.0 µM (3 of 3 replicates; controls 1 of 9).
Y60A+Y108F: 680 nM (3 of 3 replicates; controls 2 of 9).
D30R+S57K+Y60L: 7.3 µM (1 of 3 replicates; controls 1 of 9).
S57L+Y60L+G100T: 31 nM (3 of 3 replicates; controls 0 of 9).
F29L+Y60I: 27 µM (3 of 3 replicates; controls 4 of 9).
D30E+Y60G+V99N: 1.8 µM (1 of 3 replicates; controls 0 of 9).
F27L+A33D+Y60R: nd (0 of 3 replicates; controls 0 of 9).
M34L+Y60K: nd (0 of 3 replicates; controls 2 of 9).
T28Q+S55R+Y60M: 21 µM (1 of 3 replicates; controls 1 of 9).
D31H+S52N+Y60P: 4.3 µM (1 of 3 replicates; controls 1 of 9).
F27H+G56N+Y60A: nd (0 of 3 replicates; controls 0 of 9).
S55M+Y60C+S63H: nd (0 of 3 replicates; controls 1 of 9).
M34H+Y60R: 12 µM (1 of 3 replicates; controls 3 of 9).
S57F+Y60V+G103T: nd (0 of 3 replicates; controls 0 of 9).
M34N+Y60G+V64M: nd (0 of 3 replicates; controls 0 of 9).
Y60E+V99R+Y108P: nd (0 of 3 replicates; controls 0 of 9).
I58G+Y60Q+G103Y: nd (0 of 3 replicates; controls 1 of 9).
H35L+I58A+Y60W: nd (0 of 3 replicates; controls 0 of 9).
I51P+G59D+Y60V: nd (0 of 3 replicates; controls 0 of 9).
F27L+S55M+Y60L: nd (0 of 3 replicates; controls 3 of 9).
F27E+Y60G+V64E: nd (0 of 3 replicates; controls 1 of 9).
Y32E+Y60M+S63F: 7.1 µM (1 of 3 replicates; controls 2 of 9).
I58P+Y60R+V64D: nd (0 of 3 replicates; controls 3 of 9).

Repeated from above, the 6 best binders with a signal in all replicates:

{"changes": "Y60V+V99F+G102V", "apparent Kd": "14 nM", "detected": "3 of 3", "signal with controls": "9 of 9"}
{"changes": "S57L+Y60L+G100T", "apparent Kd": "31 nM", "detected": "3 of 3", "signal with controls": "0 of 9"}
{"changes": "Y60V", "apparent Kd": "50 nM", "detected": "3 of 3", "signal with controls": "2 of 9"}
{"changes": "A33P+Y60F+Y105R", "apparent Kd": "210 nM", "detected": "3 of 3", "signal with controls": "2 of 9"}
{"changes": "Y60A+Y108F", "apparent Kd": "680 nM", "detected": "3 of 3", "signal with controls": "2 of 9"}
{"changes": "Y60T+D62A+G102H", "apparent Kd": "2.0 µM", "detected": "3 of 3", "signal with controls": "1 of 9"}

As a blank, each scFv also met three strains without target: over library AAYL51, 21% of these pairings were detected, typically at 34 µM and seldom below 1.8 µM. For each scFv, signals with the empty controls are counted beside the result. In this assay the parent's reference entry averaged 72 nM; its copy inside this library read 7.5 nM.